Measured values taken from publication PMC6920932.

Legend:
Experiment in all cases: purified protein
BrCCBr = conditions: pH 8.6; 37.0 °C
BrCCCBr = conditions: 100 mM glycine buffer pH 8.6, 37 °C
N#CCCCBr = conditions: 100 mM glycine buffer pH 8.6, 37 °C

Work on “DmxA (Marinobacter sp. ELB17; F246A/M177A)” yielded a K0.5 (BrCCBr) of 1.34 mM, a K0.5 (BrCCCBr) of 0.13 mM and a kcat (BrCCCBr) of 1.91 s⁻¹. It also gave a K0.5 (N#CCCCBr) of 0.93 mM and a kcat (N#CCCCBr) of 1.25 s⁻¹.

DmxA (Marinobacter sp. ELB17; Q40N) was tested, and the Km (BrCCBr) was 1190 µM, the Km (BrCCCBr; no substrate inhibition) was 130 µM and the kcat (BrCCCBr; no substrate inhibition) was 30.91 s⁻¹. For the same substance, the Km (N#CCCCBr; no substrate inhibition) was 1250 µM and the kcat (N#CCCCBr; no substrate inhibition) was 0.93 s⁻¹.
